# AlphaSeq binding of Ab-14 heavy chain variants to a spike HR2 peptide

From the AlphaSeq antibody data of Li et al. 2023 (doi:10.1038/s41467-023-39022-2), copy in the FLAb collection.

Binding partner: SARS-CoV-2 spike HR2 peptide, sequence PDVDLGDISGINAS.

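The parent was found by panning a naive human phage display library on the peptide. These sequences belong to a second round, designed from the earlier measurements on random variants of the parent. Their group label is 14H_En_HC (En: ensemble of fine-tuned language models; HC: hill climbing; a sequence that several methods proposed may carry one label only). In AlphaSeq, yeast of one mating type display the scFv and yeast of the other type display the target. After mating in shaken culture at 30 °C for 16 h, diploids were selected and their barcode pairs sequenced. The ratio of observed to expected reads was calibrated, replicate by replicate, on BCL2-family standards whose Kd was known from biolayer interferometry. Each pool was mated in six replicate cultures.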

Each scFv is VH, a (GGGGS)3 linker, VL, as in the parent Ab-14, and differs from it in the CDRs of the heavy chain only.
VH: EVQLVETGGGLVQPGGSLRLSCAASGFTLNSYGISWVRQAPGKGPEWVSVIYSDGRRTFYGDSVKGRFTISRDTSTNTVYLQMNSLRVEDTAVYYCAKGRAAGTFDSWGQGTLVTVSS
VL: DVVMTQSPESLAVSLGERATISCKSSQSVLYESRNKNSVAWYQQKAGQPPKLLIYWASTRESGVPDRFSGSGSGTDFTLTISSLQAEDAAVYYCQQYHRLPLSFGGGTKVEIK

Variants are written as CDR1, CDR2 and CDR3 of the heavy chain (limits as in the source). Parent: GFTLNSYGIS, VIYSDGRRTFYGDSVK, GRAAGTFDS. Affinities are written as log10 Kd with Kd in nM; a lower number is a better binder. A mean of the replicates is given; it leaves out those without a signal. An entry "ND" has no value in the source: the pair was not observed among the diploids in that replicate. This suggests poor binding but is not conclusive. The parent sequence was in this pool as ten entries: three were never detected, three once, and four in most replicates, with averages from 0.34 to 2.37. A sequence measured in both rounds can read differently, since the two assays cover different ranges. In the paper, a design with two or fewer of six values counts as a poor binder. As a blank, each scFv also met three strains without target: over all heavy chain designs, 1% of these pairings were detected, typically at 2.08 and seldom below 0.84. The control count says in how many pairings with the empty strains this scFv gave a signal.

GFNLNEYGIS / VIYADGKRTFYADSVK / GQQAGTFDM: -0.40, -0.48, -0.59, -0.74, -0.31, -0.64 (mean -0.52; controls 0 of 18).
GFDLNEYGIS / VIYADGRRTAYVDSVK / GEVAGTFDS: -0.39, -0.38, -0.60, -0.53, -0.33, -0.27 (mean -0.42; controls 1 of 18).
GFDLNEYGIS / VIYADGMRTFYIDSVK / GENAGTFDM: 0.09, -0.16, -0.05, 0.00, -0.50, 0.21 (mean -0.07; controls 0 of 18).
GFNLDEYGIS / VIYADGRRTFYQDSVK / GEGAGTFDL: ND, 1.34, ND, 1.84, ND, ND (mean 1.59; controls 0 of 18).
GFDLNEYGIS / VIYADGRRTFYTDSVK / GEVAGTFDI: -0.39, -0.76, -0.78, -1.05, -0.69, -0.49 (mean -0.69; controls 0 of 18).
GFDINEYGIS / VIYADGRRTAYADSVK / GEAAGTFDA: -0.17, -0.34, -0.77, -0.07, -0.18, -0.17 (mean -0.28; controls 0 of 18).
GFDLEDYGIS / VIYADGKRTFYADSVK / GEIAGTFDL: ND, ND, ND, ND, ND, ND (controls 0 of 18).
GFDLNEYGIS / VIYADGKRTFYADSVK / GHVAGTFVS: 0.09, -0.43, -0.72, -0.42, -0.83, -0.44 (mean -0.46; controls 0 of 18).
GFDLNEYGIS / VIYADGRRTFYSDSVK / GTVAGTFDL: -0.34, -0.45, -0.70, -0.66, -0.71, -0.45 (mean -0.55; controls 0 of 18).
GFDLNEYGIS / VIYADGQRTAYADSVK / GQAAGTFDS: -0.02, -0.38, -0.57, -0.44, -0.72, -0.29 (mean -0.40; controls 0 of 18).
GFDLNEYGIS / VIYADGRRTFYQDSVK / GQNAGTFDQ: -0.29, -0.50, -0.56, -0.53, -0.94, -0.43 (mean -0.54; controls 0 of 18).
GFNLNEYGIS / VIYADGMRTFYTDSVK / GETAGTFIV: ND, 2.77, 2.97, ND, 3.92, 2.58 (mean 3.06; controls 2 of 18).
GFDLNEYGIS / VIYADGQRTAYADSVK / GKIAGTFDS: -0.76, -0.85, -0.77, -0.95, -1.12, -0.78 (mean -0.87; controls 0 of 18).
GFDLDEYGIS / VIYADGRRTFYTDSVK / GNVAGTFDV: -0.20, -0.45, -0.57, -0.73, -0.34, -0.06 (mean -0.39; controls 0 of 18).
GFDLNEYGIS / VIYADGRRTSYKDSVK / GEQAGTFDV: 1.38, 0.10, 1.51, 0.69, 1.09, 0.94 (mean 0.95; controls 0 of 18).
GFDLNEYGIS / VIYADGRRTFYADSVK / GNTAGTFFS: 0.67, 0.18, 0.40, -0.37, 0.29, 0.12 (mean 0.21; controls 0 of 18).
GFDLNEYGIS / VIYADGRRTAYLDSVK / GQNAGTFDT: -0.37, -0.75, -0.53, -0.92, -0.62, -0.52 (mean -0.62; controls 0 of 18).
GFDLNEYGIS / VIYADGMRTFYTDSVK / GEFAGTFDD: 0.65, 0.80, 1.04, 0.53, 0.49, 0.88 (mean 0.73; controls 2 of 18).
GFDLNEYGIS / VIYADGRRTFYSDSVK / GEIAGFFDM: ND, ND, ND, ND, 2.22, ND (controls 0 of 18).
GFDLNEYGIS / VIYADGMRTQYIDSVK / GNAAGTFDM: 0.14, 0.80, -0.24, 0.42, ND, -0.33 (mean 0.16; controls 0 of 18).
GFNLNEYGIS / VIYADGRRTFYADSVK / GEHAGTFDV: -0.57, -0.73, -0.64, -1.06, -0.72, -0.46 (mean -0.70; controls 0 of 18).
GFDLDEYGIS / VIYADGRRTFYIDSVK / GNVAGTFDS: -0.52, -0.81, -0.78, -0.73, -1.04, -0.34 (mean -0.70; controls 1 of 18).
GFDLDEYGIS / VIYADGRRTYYADSVK / GTNAGTFDA: 1.27, 1.04, 2.05, ND, 1.02, 1.05 (mean 1.29; controls 1 of 18).
GFDLNEYGIS / VIYADGKRTFYADSVK / GTNAGTFDQ: -0.11, -0.23, -0.41, -0.50, -0.33, -0.55 (mean -0.36; controls 0 of 18).
GFDLNEYGIS / VIYADGLRTSYLDSVK / GQLAGTFDQ: 0.65, 0.46, 0.37, 0.16, 0.33, 0.05 (mean 0.34; controls 0 of 18).
GFDLNEYGIS / VIYADGMRTFYIDSVK / GETAGTFDQ: -0.17, -0.43, -0.66, -0.73, -0.60, -0.48 (mean -0.51; controls 1 of 18).
GFDLNEYGIS / VIYADGMRTAYADSVK / GNEAGTFDS: -1.23, -2.45, -2.51, -2.19, -1.72, -1.55 (mean -1.94; controls 0 of 18).
GFDLDEYGIS / VIYADGMRTFYTDSVK / GEVAGTFDA: 0.20, 0.03, 0.34, -0.28, -0.12, 0.39 (mean 0.09; controls 0 of 18).
GFDLNEYGIS / VIYADGRRTFYTDSVK / GNAAGTFNV: 0.92, 1.54, 1.22, 0.98, 1.05, 1.67 (mean 1.23; controls 0 of 18).
GFDLNEYGIS / VIYADGRRTFYADSVK / GQNAGTFLV: ND, ND, 0.22, ND, ND, ND (controls 0 of 18).
GFDLEDYGIS / VIYADGRRTFYADSVK / GETAGTFDL: 0.07, -0.27, -0.54, -0.85, -0.83, -0.83 (mean -0.54; controls 0 of 18).
GFDLNEYGIS / VIYADGKRTAYIDSVK / GHNAGTFDV: 0.27, -1.01, -0.14, 0.64, -0.53, -0.32 (mean -0.18; controls 0 of 18).
GFDLEDYGIS / VIYADGRRTAYIDSVK / GETAGTFDS: -0.05, -0.81, -0.52, -1.02, -0.54, -0.43 (mean -0.56; controls 0 of 18).
GFNLNEYGIS / VIYADGVRTFYADSVK / GGAAGTFDV: -0.24, -0.05, -0.14, -0.26, 0.02, 0.02 (mean -0.11; controls 0 of 18).
GFNLDEYGIS / VIYADGRRTFYADSVK / GENAGTFLM: 2.00, 1.62, ND, 1.76, ND, 1.54 (mean 1.73; controls 0 of 18).
GFDLDEYGIS / VIYADGRRTFYADSVK / GTNAGTFDA: 0.44, 0.19, 0.10, -0.18, 0.24, 0.09 (mean 0.14; controls 0 of 18).
GFDLNEYGIS / VIYADGLRTFYTDSVK / GEEAGTFDV: -0.75, -0.20, -0.48, -0.30, -0.05, 0.21 (mean -0.26; controls 0 of 18).
GFDINEYGIS / VIYADGRRTFYTDSVK / GGNAGTFDT: ND, ND, ND, ND, ND, ND (controls 0 of 18).
GFDLNEYGIS / VIYADGVRTFYTDSVK / GGNAGTFDS: -0.53, -0.61, 0.08, -0.72, -0.79, -0.23 (mean -0.47; controls 0 of 18).
GFDLNEYGIS / VIYADGRRTFYADSVK / GNTAGTFII: 0.47, 0.72, 0.70, 0.35, 0.47, 0.59 (mean 0.55; controls 0 of 18).
GFDLNEYGIS / VIYADGRRTFYIDSVK / GESAGTFDQ: ND, ND, ND, ND, ND, ND (controls 0 of 18).

The closing 5 entries, repeated:

| CDR-H1 | CDR-H2 | CDR-H3 | log10 Kd (nM) by replicate | mean, log10 nM | control signals |
|---|---|---|---|---|---|
| GFDLNEYGIS | VIYADGLRTFYTDSVK | GEEAGTFDV | -0.75, -0.20, -0.48, -0.30, -0.05, 0.21 | -0.26 | 0 of 18 |
| GFDINEYGIS | VIYADGRRTFYTDSVK | GGNAGTFDT | ND, ND, ND, ND, ND, ND | ND | 0 of 18 |
| GFDLNEYGIS | VIYADGVRTFYTDSVK | GGNAGTFDS | -0.53, -0.61, 0.08, -0.72, -0.79, -0.23 | -0.47 | 0 of 18 |
| GFDLNEYGIS | VIYADGRRTFYADSVK | GNTAGTFII | 0.47, 0.72, 0.70, 0.35, 0.47, 0.59 | 0.55 | 0 of 18 |
| GFDLNEYGIS | VIYADGRRTFYIDSVK | GESAGTFDQ | ND, ND, ND, ND, ND, ND | ND | 0 of 18 |